Laboratory results: ChEMBL document CHEMBL2218924, “A broad activity screen in support of a chemogenomic map for kinase signalling research and drug discovery” (Biochem J, 2013)
For part of these data: Shown are results outside the selection of strong results, which stands elsewhere. No rule for the calls is given here. Only a part is listed here, and it is no random draw.

Chains of the proteins cited; added tags and fusions are not shown. Lines headed by an entry give the natural chain unless they say otherwise; changes in a name come on top.
UniProt P10721, whole entry: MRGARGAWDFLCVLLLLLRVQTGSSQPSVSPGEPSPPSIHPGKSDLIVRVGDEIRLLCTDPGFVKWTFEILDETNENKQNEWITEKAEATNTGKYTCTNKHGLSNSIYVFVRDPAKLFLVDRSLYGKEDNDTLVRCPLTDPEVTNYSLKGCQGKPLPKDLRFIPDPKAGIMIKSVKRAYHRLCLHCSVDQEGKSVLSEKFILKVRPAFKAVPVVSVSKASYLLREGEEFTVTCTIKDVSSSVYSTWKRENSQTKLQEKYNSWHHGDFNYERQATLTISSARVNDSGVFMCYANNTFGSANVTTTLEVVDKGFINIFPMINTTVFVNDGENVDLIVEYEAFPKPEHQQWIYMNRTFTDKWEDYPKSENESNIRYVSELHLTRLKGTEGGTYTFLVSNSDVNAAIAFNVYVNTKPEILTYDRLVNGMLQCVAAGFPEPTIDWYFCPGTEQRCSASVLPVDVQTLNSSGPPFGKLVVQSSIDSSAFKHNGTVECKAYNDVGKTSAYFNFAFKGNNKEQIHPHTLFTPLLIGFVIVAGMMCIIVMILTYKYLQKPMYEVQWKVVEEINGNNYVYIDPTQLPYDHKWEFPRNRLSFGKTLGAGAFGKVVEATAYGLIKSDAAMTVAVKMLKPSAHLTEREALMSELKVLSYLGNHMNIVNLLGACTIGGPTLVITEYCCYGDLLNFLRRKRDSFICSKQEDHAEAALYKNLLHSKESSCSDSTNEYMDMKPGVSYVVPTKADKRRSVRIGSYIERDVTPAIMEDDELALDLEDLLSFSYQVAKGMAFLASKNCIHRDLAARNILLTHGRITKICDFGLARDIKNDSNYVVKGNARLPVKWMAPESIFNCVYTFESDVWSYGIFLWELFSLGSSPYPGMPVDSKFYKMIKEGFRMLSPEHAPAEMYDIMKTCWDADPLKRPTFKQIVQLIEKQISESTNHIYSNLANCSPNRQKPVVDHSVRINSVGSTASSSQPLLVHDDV
UniProt O96013: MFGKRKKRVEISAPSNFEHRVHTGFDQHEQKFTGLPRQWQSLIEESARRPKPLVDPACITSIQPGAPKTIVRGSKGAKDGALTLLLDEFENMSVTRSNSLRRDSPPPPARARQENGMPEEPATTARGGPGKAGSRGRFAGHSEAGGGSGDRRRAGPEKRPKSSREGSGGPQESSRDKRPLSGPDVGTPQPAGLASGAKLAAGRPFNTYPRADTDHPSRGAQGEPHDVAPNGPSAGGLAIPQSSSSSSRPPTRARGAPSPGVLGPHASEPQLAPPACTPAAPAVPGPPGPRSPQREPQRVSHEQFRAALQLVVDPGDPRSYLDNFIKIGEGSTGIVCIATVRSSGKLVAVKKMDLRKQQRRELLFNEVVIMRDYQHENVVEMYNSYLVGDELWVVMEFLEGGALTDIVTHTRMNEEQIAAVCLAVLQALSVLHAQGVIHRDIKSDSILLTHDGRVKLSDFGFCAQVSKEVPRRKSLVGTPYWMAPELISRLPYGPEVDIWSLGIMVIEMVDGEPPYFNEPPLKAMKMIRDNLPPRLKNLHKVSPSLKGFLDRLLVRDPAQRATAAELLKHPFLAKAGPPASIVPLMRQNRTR
UniProt Q9P286: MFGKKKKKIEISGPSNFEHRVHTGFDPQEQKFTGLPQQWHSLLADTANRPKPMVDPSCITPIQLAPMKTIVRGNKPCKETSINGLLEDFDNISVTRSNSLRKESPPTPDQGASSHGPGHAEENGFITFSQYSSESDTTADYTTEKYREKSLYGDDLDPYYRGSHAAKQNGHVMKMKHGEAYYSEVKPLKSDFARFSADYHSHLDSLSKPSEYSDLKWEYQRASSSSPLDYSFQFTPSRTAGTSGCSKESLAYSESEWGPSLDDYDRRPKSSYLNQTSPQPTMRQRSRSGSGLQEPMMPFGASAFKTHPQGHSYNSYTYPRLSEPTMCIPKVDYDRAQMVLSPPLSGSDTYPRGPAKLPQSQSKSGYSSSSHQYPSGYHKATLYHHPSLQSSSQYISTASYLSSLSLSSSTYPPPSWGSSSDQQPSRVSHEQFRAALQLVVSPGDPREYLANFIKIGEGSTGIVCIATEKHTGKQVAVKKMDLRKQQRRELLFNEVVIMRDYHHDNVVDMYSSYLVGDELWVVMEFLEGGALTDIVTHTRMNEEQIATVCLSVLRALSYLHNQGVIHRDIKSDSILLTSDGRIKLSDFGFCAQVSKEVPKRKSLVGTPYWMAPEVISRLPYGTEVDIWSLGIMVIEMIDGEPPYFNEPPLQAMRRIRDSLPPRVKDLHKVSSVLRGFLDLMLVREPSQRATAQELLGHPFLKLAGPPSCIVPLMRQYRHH
UniProt Q96RG2: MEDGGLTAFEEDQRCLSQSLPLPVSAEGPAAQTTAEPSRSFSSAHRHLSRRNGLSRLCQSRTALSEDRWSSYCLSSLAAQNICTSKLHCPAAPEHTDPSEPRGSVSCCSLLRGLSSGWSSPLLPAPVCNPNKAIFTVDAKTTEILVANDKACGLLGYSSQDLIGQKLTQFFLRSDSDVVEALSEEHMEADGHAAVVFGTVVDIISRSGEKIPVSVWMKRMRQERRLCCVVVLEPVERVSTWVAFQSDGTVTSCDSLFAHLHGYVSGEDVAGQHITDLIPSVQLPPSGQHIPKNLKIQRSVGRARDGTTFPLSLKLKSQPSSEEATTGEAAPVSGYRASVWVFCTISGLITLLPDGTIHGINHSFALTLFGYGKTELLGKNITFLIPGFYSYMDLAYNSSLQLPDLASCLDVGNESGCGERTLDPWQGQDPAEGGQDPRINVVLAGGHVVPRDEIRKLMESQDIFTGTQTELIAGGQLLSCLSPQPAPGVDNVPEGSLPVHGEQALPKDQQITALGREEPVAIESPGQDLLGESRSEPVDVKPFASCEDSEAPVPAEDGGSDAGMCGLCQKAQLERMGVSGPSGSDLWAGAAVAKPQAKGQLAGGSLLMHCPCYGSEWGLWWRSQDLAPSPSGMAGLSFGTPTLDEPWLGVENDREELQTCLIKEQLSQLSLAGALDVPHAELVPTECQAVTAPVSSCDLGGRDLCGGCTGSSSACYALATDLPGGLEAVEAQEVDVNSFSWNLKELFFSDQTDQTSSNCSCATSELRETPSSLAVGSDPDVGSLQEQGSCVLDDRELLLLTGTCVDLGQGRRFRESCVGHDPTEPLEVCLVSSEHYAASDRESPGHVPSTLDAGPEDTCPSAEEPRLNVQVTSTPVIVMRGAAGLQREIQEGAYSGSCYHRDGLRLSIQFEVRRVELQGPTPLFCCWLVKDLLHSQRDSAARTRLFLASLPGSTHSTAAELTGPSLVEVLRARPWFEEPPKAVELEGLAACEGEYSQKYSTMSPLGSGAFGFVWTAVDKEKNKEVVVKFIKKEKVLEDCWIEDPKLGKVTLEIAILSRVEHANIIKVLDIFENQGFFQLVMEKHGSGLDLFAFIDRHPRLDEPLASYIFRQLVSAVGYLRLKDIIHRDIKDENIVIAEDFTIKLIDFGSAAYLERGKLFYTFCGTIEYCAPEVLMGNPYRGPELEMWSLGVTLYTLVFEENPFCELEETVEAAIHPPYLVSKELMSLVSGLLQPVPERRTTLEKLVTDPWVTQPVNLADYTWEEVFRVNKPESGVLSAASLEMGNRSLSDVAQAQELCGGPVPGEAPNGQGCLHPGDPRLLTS
UniProt P09619, whole entry: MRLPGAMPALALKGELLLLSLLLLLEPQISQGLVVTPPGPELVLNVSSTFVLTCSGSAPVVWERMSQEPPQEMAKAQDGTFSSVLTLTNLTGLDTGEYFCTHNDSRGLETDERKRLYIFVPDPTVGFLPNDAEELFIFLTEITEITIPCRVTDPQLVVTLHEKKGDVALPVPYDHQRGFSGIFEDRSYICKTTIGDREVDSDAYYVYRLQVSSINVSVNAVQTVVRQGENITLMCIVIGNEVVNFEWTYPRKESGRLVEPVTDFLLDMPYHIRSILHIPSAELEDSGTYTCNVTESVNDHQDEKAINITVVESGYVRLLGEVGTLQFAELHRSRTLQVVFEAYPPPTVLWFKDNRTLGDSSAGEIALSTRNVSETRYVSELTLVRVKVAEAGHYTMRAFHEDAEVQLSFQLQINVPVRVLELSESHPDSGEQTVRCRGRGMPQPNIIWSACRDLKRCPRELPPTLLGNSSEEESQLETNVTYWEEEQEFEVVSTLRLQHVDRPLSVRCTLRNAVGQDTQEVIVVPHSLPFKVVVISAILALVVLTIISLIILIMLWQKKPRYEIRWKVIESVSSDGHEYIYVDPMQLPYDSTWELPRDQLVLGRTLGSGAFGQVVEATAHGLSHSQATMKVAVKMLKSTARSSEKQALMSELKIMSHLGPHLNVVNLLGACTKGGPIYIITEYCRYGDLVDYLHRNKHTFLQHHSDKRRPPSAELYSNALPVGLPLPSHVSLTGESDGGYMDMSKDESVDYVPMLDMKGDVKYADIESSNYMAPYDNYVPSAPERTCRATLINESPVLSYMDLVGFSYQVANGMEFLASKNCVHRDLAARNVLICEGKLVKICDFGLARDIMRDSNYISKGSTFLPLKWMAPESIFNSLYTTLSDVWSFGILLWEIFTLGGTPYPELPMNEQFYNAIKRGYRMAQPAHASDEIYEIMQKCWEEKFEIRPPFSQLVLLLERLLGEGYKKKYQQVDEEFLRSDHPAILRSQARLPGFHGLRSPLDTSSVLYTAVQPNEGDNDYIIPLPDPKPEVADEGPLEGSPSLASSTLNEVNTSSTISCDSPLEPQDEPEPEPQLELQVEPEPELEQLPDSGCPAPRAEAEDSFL
UniProt P31749: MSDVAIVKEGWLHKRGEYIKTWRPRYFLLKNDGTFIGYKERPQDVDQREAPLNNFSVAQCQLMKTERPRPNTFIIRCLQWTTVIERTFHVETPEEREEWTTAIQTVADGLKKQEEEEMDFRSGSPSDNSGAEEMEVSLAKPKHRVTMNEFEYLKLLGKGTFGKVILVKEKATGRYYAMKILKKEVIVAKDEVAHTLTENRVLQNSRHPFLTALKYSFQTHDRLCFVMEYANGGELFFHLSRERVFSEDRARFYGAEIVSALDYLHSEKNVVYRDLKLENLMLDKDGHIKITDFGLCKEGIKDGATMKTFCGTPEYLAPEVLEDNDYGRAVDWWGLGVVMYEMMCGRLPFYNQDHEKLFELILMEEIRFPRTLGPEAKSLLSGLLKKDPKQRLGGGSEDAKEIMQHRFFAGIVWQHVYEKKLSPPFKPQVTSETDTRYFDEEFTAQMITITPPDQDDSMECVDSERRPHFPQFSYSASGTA
UniProt P05771, whole entry, looked up: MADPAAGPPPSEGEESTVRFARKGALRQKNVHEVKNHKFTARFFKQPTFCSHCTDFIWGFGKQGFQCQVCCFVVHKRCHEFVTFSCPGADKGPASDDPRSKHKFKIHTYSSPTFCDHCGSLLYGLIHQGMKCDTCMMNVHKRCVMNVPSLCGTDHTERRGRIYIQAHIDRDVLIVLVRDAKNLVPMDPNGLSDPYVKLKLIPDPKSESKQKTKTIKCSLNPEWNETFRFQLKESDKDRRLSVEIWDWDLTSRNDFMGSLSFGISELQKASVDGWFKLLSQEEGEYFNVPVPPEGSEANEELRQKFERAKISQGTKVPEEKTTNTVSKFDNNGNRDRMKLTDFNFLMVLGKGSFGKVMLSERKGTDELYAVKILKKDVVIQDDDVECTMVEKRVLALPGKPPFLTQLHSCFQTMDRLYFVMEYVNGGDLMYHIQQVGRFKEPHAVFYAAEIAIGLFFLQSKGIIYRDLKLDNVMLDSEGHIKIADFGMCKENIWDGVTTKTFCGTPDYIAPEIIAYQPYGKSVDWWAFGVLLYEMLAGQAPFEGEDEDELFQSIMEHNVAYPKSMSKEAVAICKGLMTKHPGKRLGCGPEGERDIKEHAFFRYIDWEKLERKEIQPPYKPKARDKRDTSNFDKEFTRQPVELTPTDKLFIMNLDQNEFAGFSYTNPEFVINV

What was measured:
[1] = biological target: Serine/threonine-protein kinase Nek2 (Homo sapiens) (UniProt P51955); conditions: at 1 µM
[2] = biological target: Serine/threonine-protein kinase Nek3 (Homo sapiens) (UniProt P51956); conditions: at 10 µM
[3] = biological target: T1, Serine/threonine-protein kinase ULK2 (Homo sapiens) (UniProt Q8IYT8); conditions: at 1 µM
T1 sequence (whole entry): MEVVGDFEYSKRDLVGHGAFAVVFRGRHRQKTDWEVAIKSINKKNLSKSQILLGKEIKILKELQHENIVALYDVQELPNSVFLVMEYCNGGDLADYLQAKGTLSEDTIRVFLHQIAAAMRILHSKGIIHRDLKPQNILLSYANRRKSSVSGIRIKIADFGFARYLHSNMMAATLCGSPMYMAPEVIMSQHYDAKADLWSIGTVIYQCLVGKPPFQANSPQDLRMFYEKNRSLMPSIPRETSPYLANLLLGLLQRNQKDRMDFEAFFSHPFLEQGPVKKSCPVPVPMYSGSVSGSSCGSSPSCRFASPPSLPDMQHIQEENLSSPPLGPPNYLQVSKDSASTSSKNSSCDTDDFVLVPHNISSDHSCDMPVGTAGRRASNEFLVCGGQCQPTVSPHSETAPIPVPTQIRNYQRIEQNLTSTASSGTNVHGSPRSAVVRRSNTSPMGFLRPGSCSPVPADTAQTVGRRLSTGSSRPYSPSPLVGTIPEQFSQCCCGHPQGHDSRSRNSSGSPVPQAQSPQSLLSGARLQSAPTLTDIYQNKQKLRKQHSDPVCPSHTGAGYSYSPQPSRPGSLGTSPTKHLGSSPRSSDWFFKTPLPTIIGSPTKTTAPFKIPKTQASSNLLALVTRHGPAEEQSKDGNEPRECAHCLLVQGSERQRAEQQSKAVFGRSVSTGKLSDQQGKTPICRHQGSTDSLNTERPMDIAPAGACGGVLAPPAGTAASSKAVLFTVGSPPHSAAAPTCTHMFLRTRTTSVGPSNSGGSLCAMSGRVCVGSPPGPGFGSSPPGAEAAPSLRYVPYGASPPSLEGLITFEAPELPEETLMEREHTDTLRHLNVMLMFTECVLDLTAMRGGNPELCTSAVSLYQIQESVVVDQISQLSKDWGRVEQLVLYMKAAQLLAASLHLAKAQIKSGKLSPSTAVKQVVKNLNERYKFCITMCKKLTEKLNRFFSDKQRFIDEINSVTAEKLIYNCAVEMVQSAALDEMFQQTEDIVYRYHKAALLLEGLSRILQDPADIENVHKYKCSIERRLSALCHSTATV

[4] = biological target: T1, Serine/threonine-protein kinase ULK2 (Homo sapiens); conditions: at 10 µM
[5] = biological target: Serine/threonine-protein kinase VRK2 (Homo sapiens) (UniProt Q86Y07); conditions: at 1 µM
[6] = biological target: Serine/threonine-protein kinase VRK2 (Homo sapiens) (UniProt Q86Y07); conditions: at 10 µM
[7] = biological target: Tyrosine-protein kinase Yes (Homo sapiens) (UniProt P07947); conditions: at 1 µM
[8] = biological target: T2, Tyrosine-protein kinase ZAP-70 (Homo sapiens) (UniProt P43403); conditions: at 1 µM
T2 sequence (whole entry): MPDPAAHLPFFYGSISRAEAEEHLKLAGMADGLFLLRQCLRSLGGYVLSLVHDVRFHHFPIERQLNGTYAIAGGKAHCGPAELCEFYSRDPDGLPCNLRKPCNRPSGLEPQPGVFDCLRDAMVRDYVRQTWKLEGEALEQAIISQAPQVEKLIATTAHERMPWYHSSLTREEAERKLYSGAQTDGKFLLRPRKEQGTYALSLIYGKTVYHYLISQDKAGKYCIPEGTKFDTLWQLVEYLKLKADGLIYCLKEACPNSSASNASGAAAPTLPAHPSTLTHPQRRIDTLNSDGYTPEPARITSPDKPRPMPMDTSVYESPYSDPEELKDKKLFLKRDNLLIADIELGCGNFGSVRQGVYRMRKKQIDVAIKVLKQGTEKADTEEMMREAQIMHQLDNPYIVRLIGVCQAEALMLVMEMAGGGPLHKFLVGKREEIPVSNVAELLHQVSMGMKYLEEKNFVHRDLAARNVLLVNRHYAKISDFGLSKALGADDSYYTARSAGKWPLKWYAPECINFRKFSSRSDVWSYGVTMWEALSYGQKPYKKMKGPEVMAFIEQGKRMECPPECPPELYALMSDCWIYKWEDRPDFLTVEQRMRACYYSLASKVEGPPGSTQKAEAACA

[9] = biological target: T2, Tyrosine-protein kinase ZAP-70 (Homo sapiens); conditions: at 10 µM
[10] = biological target: Mast/stem cell growth factor receptor Kit (Homo sapiens) (UniProt P10721); conditions: at 1 µM
[11] = biological target: Proto-oncogene tyrosine-protein kinase Src (Homo sapiens) (UniProt P12931); conditions: at 1 µM
[12] = biological target: T3, Serine/threonine-protein kinase Nek6 (Homo sapiens) (UniProt Q9HC98); conditions: at 10 µM
T3 sequence (whole entry): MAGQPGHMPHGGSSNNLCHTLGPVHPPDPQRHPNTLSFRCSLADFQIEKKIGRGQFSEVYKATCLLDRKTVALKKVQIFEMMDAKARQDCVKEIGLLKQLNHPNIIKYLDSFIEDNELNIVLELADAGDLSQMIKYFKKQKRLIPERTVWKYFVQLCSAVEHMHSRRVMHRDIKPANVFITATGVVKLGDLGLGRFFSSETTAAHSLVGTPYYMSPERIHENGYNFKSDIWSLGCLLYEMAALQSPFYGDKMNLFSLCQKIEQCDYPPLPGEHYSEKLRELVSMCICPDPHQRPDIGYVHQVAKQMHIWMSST

[13] = biological target: Serine/threonine-protein kinase Nek7 (Homo sapiens) (UniProt Q8TDX7); conditions: at 10 µM
[14] = biological target: Serine/threonine-protein kinase PAK 4 (Homo sapiens) (UniProt O96013); conditions: at 10 µM
[15] = biological target: Serine/threonine-protein kinase PAK 5 (Homo sapiens) (UniProt Q9P286); conditions: at 1 µM
[16] = biological target: PAS domain-containing serine/threonine-protein kinase (Homo sapiens) (UniProt Q96RG2); conditions: at 1 µM
[17] = biological target: T4, Activin receptor type-1B (Homo sapiens) (UniProt P36896); conditions: at 10 µM
T4 sequence (whole entry): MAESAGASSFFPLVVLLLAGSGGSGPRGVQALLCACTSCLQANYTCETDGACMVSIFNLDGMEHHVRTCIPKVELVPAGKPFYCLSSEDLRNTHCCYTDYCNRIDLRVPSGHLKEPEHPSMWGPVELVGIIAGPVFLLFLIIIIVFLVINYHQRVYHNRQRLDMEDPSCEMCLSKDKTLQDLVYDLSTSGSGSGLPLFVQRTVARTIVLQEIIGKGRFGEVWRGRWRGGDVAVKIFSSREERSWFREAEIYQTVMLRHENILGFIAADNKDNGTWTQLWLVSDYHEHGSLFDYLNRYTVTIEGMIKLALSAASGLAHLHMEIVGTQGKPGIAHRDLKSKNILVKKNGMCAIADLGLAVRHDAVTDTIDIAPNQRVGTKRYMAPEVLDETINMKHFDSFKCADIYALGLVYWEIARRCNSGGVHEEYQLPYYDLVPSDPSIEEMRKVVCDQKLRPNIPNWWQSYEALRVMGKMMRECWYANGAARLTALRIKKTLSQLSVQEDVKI

[18] = biological target: Platelet-derived growth factor receptor alpha (Homo sapiens) (UniProt P16234); conditions: at 1 µM
[19] = biological target: Platelet-derived growth factor receptor alpha (Homo sapiens) (UniProt P16234); conditions: at 10 µM
[20] = biological target: Platelet-derived growth factor receptor beta (Homo sapiens) (UniProt P09619); conditions: at 1 µM
[21] = biological target: 3-phosphoinositide-dependent protein kinase 1 (Homo sapiens) (UniProt O15530); conditions: at 1 µM
[22] = biological target: 3-phosphoinositide-dependent protein kinase 1 (Homo sapiens) (UniProt O15530); conditions: at 10 µM
[23] = biological target: cAMP-dependent protein kinase catalytic subunit alpha (Homo sapiens) (UniProt P17612); conditions: at 1 µM
[24] = biological target: cAMP-dependent protein kinase catalytic subunit alpha (Homo sapiens) (UniProt P17612); conditions: at 10 µM
[25] = biological target: RAC-alpha serine/threonine-protein kinase (Homo sapiens) (UniProt P31749); conditions: at 10 µM
[26] = biological target: Protein kinase C alpha type (Homo sapiens) (UniProt P17252); conditions: at 10 µM
[27] = biological target: Protein kinase C beta type (Homo sapiens) (UniProt P05771); conditions: at 1 µM
[28] = biological target: Protein kinase C beta type (Homo sapiens) (UniProt P05771); conditions: at 10 µM
[29] = biological target: Protein kinase C beta type (Homo sapiens) (UniProt P05771); conditions: at 1 µM; remark: listed apart in the source
[30] = biological target: T5, Protein kinase C epsilon type (Homo sapiens) (UniProt Q02156); conditions: at 10 µM
T5 sequence (whole entry): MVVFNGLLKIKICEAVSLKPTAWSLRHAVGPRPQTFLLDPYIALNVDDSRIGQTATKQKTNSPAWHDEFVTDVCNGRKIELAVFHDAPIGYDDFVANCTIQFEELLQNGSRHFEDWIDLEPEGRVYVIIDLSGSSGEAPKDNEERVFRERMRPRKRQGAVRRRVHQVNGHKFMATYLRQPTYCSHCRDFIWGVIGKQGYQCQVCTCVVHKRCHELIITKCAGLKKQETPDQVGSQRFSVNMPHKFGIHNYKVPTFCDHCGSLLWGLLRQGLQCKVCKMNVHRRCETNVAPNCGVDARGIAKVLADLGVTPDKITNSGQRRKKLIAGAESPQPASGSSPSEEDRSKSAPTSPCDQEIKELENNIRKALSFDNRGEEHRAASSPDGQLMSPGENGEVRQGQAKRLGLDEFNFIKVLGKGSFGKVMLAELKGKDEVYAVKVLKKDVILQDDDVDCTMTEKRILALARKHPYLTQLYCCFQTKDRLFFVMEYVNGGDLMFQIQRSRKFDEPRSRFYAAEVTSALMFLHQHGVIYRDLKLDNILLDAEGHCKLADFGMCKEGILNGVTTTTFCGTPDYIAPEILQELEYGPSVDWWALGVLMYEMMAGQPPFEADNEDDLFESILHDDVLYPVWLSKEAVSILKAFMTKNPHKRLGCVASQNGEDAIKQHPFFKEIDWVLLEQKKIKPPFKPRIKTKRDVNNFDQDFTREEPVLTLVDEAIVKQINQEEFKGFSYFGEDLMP

Q: Which residual activity [1] does the source give for `O=C1NC(=O)C(c2cn(CCCO)c3ncccc23)=C1c1cnccn1` here?
A: The residual activity was 102%.

Q: What about the residual activity [2] of the same molecule?
A: The residual activity was 102%.

Q: What about the residual activity [3] of the same molecule?
A: Its residual activity is 101%.

Q: What about the residual activity [4] of the same molecule?
A: The residual activity was 102%.

Q: What about the residual activity [5] of the same molecule?
A: The residual activity was inactive: 102%.

Q: And the residual activity [6]?
A: Its residual activity is 94%.

Q: What about the residual activity [7] of the same molecule?
A: Its residual activity is 109%.

Q: And the residual activity [8]?
A: The residual activity was 112%.

Q: And the residual activity [9]?
A: Its residual activity is 101%.

Q: And the residual activity [10]?
A: Its residual activity is 108%.

Q: What about the residual activity [11] of the same molecule?
A: Its residual activity is 102%.

Q: And the residual activity [12]?
A: The residual activity was 100%.

Q: What about the residual activity [13] of the same molecule?
A: Its residual activity is inactive: 100%.

Q: And the residual activity [14]?
A: Its residual activity is 101%.

Q: And the residual activity [15]?
A: Its residual activity is 106%.

Q: What about the residual activity [16] of the same molecule?
A: The residual activity was 114%.

Q: And the residual activity [17]?
A: The residual activity was 112%.

Q: And the residual activity [18]?
A: Its residual activity is 102%.

Q: What about the residual activity [19] of the same molecule?
A: Its residual activity is 103%.

Q: And the residual activity [20]?
A: Its residual activity is 112%.

Q: What about the residual activity [21] of the same molecule?
A: Its residual activity is 105%.

Q: What about the residual activity [22] of the same molecule?
A: Its residual activity is 99%.

Q: And the residual activity [23]?
A: Its residual activity is 95%.

Q: What about the residual activity [24] of the same molecule?
A: The residual activity was 102%.

Q: And the residual activity [25]?
A: The residual activity was 111%.

Q: And the residual activity [26]?
A: Its residual activity is 95%.

Q: And the residual activity [27]?
A: The residual activity was 122%.

Q: What about the residual activity [28] of the same molecule?
A: The residual activity was 117%.

Q: What about the residual activity [29] of the same molecule?
A: The residual activity was 110%.

Q: What about the residual activity [30] of the same molecule?
A: The residual activity was 110%.
